The values that follow come from patent US7247440B2, “Method of screening preventives or remedies for obesity” (Takeda Pharmaceutical Company Limited, priority 2001, dated 2007).

Sequences of proteins named here, by UniProt entry; tags and fusion partners are left off. A change or cut given only in a name is not applied to a line headed by its entry.
UniProt P48146: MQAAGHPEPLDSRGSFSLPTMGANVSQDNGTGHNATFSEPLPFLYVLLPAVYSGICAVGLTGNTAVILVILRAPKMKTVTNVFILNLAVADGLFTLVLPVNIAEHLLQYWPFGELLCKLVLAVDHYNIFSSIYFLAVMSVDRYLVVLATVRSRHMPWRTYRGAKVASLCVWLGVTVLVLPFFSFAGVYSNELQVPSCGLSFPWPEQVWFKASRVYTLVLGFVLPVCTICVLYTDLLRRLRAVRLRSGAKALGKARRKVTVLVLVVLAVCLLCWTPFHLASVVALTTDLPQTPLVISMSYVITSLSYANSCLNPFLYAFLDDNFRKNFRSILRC

One assay deals with T1, GPR7 (Homo sapiens, UniProt P48145).
T1 sequence (P48145 1-328): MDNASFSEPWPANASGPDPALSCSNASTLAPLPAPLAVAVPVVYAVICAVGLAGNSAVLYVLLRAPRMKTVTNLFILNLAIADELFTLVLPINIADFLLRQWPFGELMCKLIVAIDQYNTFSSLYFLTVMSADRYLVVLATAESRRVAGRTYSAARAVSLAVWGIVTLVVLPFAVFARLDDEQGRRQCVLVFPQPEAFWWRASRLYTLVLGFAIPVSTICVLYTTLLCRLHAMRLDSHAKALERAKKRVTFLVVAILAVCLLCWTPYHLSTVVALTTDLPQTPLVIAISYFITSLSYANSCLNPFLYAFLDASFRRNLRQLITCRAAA
The assay is described as follows: GTPγS-binding promoting activity on GPR7-expressed CHO cell membrane fraction. In kind it is biochemical. Details: expressed in transfected cells; host or cells: CHO dhfr- cells, plasmid pAKKO-Human GPR7 (high-expression clones 7, 8, 14). Here is the method:
The [^35S]-guanosine 5′-(γ-thio)triphosphate (GTPγS) binding promoting activity on the GPR7-expressed CHO cell membrane fraction was assayed by the following procedures.
The GPR7-expressed CHO cell membrane fraction prepared by the method described in EXAMPLE 2 was diluted with a membrane dilution buffer (50 mM Tris-hydrochloride buffer (pH 7.4), 5 mM MgCl2, 150 mM NaCl, 1 μM GDP and 0.1% BSA) to prepare a cell membrane fraction solution for assay having a protein level of 30 μg/ml. To 200 μl of the cell membrane fraction solution for assay were added 2 μl of 50 nM [^35S]-guanosine 5′-(γ-thio)triphosphate (NEN Co.) and 2 μl of a sample solution in DMSO, which was adjusted to an appropriate concentration. The resulting mixture was kept warm at 25° C. for an hour. The mixture was filtrated through a filter. After the filter was washed twice with 1.5 ml of a wash buffer (50 mM Tris-hydrochloride buffer (pH 7.4), 5 mM MgCl2, 1 mM EDTA and 0.1% BSA), radioactivity of the filter was measured with a liquid scintillation counter.
Following the procedures described in 1) above, hGPR8L (1-23) or hGPR8L (1-30) were given to the GPR7-expressed CHO cell membrane fraction in various concentrations to assay for the GTPγS-binding promoting activity. […]

The target of the next assay is GPR8 (Homo sapiens, UniProt P48146). Description: Receptor binding test using [125I-Tyr10]-hGPR8L (1-23) and GPR8-expressed CHO cell membrane fraction. Also on record: expressed in transfected cells; host or cells: membrane fraction of CHO dhfr- cells transfected with pAKKO-GPR8. Particulars: inhibition of [125I-Tyr10]-hGPR8L (1-23) binding; GPR8-expressed CHO cell membrane fraction.

In turn, `CSCC[C@H](NC(=O)[C@H](CC(C)C)NC(=O)[C@H](CC(C)C)NC(=O)CNC(=O)[C@H](C)NC(=O)[C@H](C)NC(=O)[C@H](CCCNC(=N)N)NC(=O)CNC(=O)[C@@H](NC(=O)[C@@H](NC(=O)[C@H](Cc1c[nH]cn1)NC(=O)[C@H](Cc1ccc(O)cc1)NC(=O)[C@H](CCCNC(=N)N)NC(=O)[C@@H]1CCCN1C(=O)[C@H](CO)NC(=O)[C@H](C)NC(=O)[C@@H](NC(=O)[C@H](Cc1c[nH]cn1)NC(=O)[C@H](CCCCN)NC(=O)[C@H](Cc1ccc(O)cc1)NC(=O)[C@@H](N)Cc1c[nH]c2ccccc12)C(C)C)[C@@H](C)O)C(C)C)C(=O)NCC(=O)N[C@@H](CC(C)C)C(=O)N[C@@H](CCCNC(=N)N)C(=O)N[C@@H](CCCNC(=N)N)C(=O)N[C@@H](CO)C(=O)N1CCC[C@H]1C(=O)N[C@@H](Cc1ccc(O)cc1)C(=O)N[C@@H](CC(C)C)C(=O)N[C@@H](Cc1c[nH]c2ccccc12)C(=O)O` [hGPR8L(1–30)] yielded a concentration giving a half-maximal response (EC50) at GPR7 of 0.67 nM. `CSCC[C@H](NC(=O)[C@H](CC(C)C)NC(=O)[C@H](CC(C)C)NC(=O)CNC(=O)[C@H](C)NC(=O)[C@H](C)NC(=O)[C@H](CCCNC(=N)N)NC(=O)CNC(=O)[C@@H](NC(=O)[C@@H](NC(=O)[C@H](Cc1c[nH]cn1)NC(=O)[C@H](Cc1ccc(O)cc1)NC(=O)[C@H](CCCNC(=N)N)NC(=O)[C@@H]1CCCN1C(=O)[C@H](CO)NC(=O)[C@H](C)NC(=O)[C@@H](NC(=O)[C@H](Cc1c[nH]cn1)NC(=O)[C@H](CCCCN)NC(=O)[C@H](Cc1ccc(O)cc1)NC(=O)[C@@H](N)Cc1c[nH]c2ccccc12)C(C)C)[C@@H](C)O)C(C)C)C(=O)NCC(=O)N[C@@H](CC(C)C)C(=O)O` [hGPR8L(1–23)] returned a 50% inhibitory concentration (IC50) on GPR8 of 0.25 nM. The same compound gave a half-maximal effective concentration (EC50) at GPR7 of 0.74 nM.
